Assay results reported in patent US12528818B2, “Compositions and methods for inhibition of RAS” (Leidos Biomedical Research, Inc., priority 2021, dated 2026).

Columns and labels:
[1] = molecular target: GDP-loaded KRAS4b (amino acids 1-169) G12C/C118S protein (Homo sapiens, UniProt P01116, C118S/G12C); test: Covalent cysteine 12 modification by MALDI-TOF MS, GDP-loaded KRAS G12C; format: biochemical; conditions: 15 minutes reaction time, compounds 94 or before using 5 μM proteins
[2] = molecular target: Avi-KRAS G12C (1-169) GppNHp/RAF1 RBD-3xFLAG (52-151) (Homo sapiens, UniProt P01116, G12C); test: biochemical; conditions: Raf1-GppNHp-KRAS G12C disruption, Raf1 RBD-KRAS G12C-GppNHp disruption assay IC50
[3] = molecular target: GppNHp-loaded KRAS4b (amino acids 1-169) G12C/C118S protein (Homo sapiens, UniProt P01116, C118S/G12C); test: Covalent cysteine 12 modification by MALDI-TOF MS, GppNHp-loaded KRAS G12C; format: biochemical; conditions: 15 minutes reaction time, compounds 94 or before using 5 μM proteins

Structure (SMILES)	GDP-KRAS G12C percent of modification [1]	IC50 [2] [nM]	GppNHp-KRAS G12C percent of modification [3]
C=CC(=O)NC1CN(c2nc(OC[C@@H]3CCCN3C)nc3c(F)c(-c4ccc(F)c5sc(N)nc45)c(Cl)cc23)C1 [Compound 74]	A (percent of modification ≥70%)	5000 to 20000	C (10%≤percent of modification <50%)
C=CC(=O)N1CC(Nc2nc(OC[C@@H]3CCCN3C)nc3c(F)c(-c4c(C)ccc5[nH]ncc45)c(Cl)cc23)C1 [Compound 75]	A (percent of modification ≥70%)	> 20000	D (percent of modification <10%)
C=CC(=O)N1CC(Nc2nc(OC[C@@H]3C[C@@H](OC)CN3C)nc3c(F)c(-c4ccc(F)c5sc(N)nc45)c(C(F)(F)F)cc23)C1 [Compound 76]	A (percent of modification ≥70%)	< 500	A (percent of modification ≥70%)
C=CC(=O)N1CC(Nc2nc(OC[C@@H]3C[C@@H](F)CN3C)nc3c(F)c(-c4ccc(F)c5sc(N)nc45)c(C(F)(F)F)cc23)C1 [Compound 77]	A (percent of modification ≥70%)	< 500	A (percent of modification ≥70%)
CC(C)/C=C(\C#N)C(=O)N1CC(Nc2ncnc3c(F)c(-c4ccc(F)c5sc(N)nc45)c(Cl)cc23)C1 [Compound 78]	D (percent of modification <10%)	> 20000	D (percent of modification <10%)
C=CC(=O)N1CC(Nc2nc(OCC34CCCN3CCC4)nc3c(F)c(-c4ccc(F)c5sc(N)nc45)c(C(F)(F)F)cc23)C1 [Compound 79]	A (percent of modification ≥70%)	< 500	A (percent of modification ≥70%)
C=CC(=O)N1CCN(c2nc(OCC34CCCN3CCC4)nc3c(F)c(-c4ccc(F)c5sc(N)nc45)c(C(F)(F)F)cc23)CC1 [Compound 80, 1-(4-(7-(2-amino-7-fluorobenzo[d]thiazol-4-yl)-8-fluoro-2-((tetrahydro-1H-pyrrolizin-7a(5H)-yl)methoxy)-6-(trifluoromethyl)quinazolin-4-yl)piperazin-1-yl)prop-2-en-1-one]	A (percent of modification ≥70%)	< 500	A (percent of modification ≥70%)
C#CC(=O)N1CC(Nc2nc(OC[C@@H]3CCCN3C)nc3c(F)c(-c4ccc(F)c5sc(N)nc45)c(Cl)cc23)C1 [Compound 81]	A (percent of modification ≥70%)	< 500	A (percent of modification ≥70%)
C=CC(=O)N1CCN(c2ncnc3c(F)c(-c4ccc(F)c5sc(N)nc45)c(Cl)c(OC)c23)CC1 [Compound 82]	A (percent of modification ≥70%)	> 20000	D (percent of modification <10%)
C=CC(=O)N1CC(Nc2nc(OCC3CCN3C)nc3c(F)c(-c4ccc(F)c5sc(N)nc45)c(Cl)cc23)C1 (stereo not drawn) [Compound 83]	B (50≤percent of modification <70%)	> 20000	D (percent of modification <10%)
C=CC(=O)N1CC(N(C)c2nc(OCC34CCCN3CCC4)nc3c(F)c(-c4ccc(F)c5sc(N)nc45)c(Cl)cc23)C1 [Compound 84, 1-(3-((7-(2-amino-7-fluorobenzo[d]thiazol-4-yl)-6-chloro-8-fluoro-2-((tetrahydro-1H-pyrrolizin-7a(5H)-yl)methoxy)quinazolin-4-yl)(methyl)amino)azetidin-1-yl)prop-2-en-1-one]	A (percent of modification ≥70%)	< 500	A (percent of modification ≥70%)
C=CC(=O)N1CCN(c2nc(OC[C@@H]3C[C@@H](F)CN3C)nc3c(F)c(-c4ccc(F)c5sc(N)nc45)c(Cl)cc23)CC1 [Compound 85]	A (percent of modification ≥70%)	500 to 5000	C (10%≤percent of modification <50%)
C=CC(=O)N1CC(Nc2ncnc3c(F)c(-c4ccc(F)c5sc(N)nc45)c(C(F)(F)F)cc23)C1 [Compound 86]	A (percent of modification ≥70%)	500 to 5000	C (10%≤percent of modification <50%)
C=CC(=O)N1CC(Nc2nc(OC[C@@H]3CCCN3C)nc3c(F)c(-c4ccc(F)c5sc(N)nc45)c(C(F)(F)F)cc23)C1 [Compound 87]	A (percent of modification ≥70%)	< 500	A (percent of modification ≥70%)
C=CC(=O)N1CC(Nc2nc(OC[C@@H]3CCCN3C)nc3c(F)c(-c4cccc5oc(N)nc45)c(Cl)cc23)C1 [Compound 88]	A (percent of modification ≥70%)	500 to 5000	C (10%≤percent of modification <50%)
C=CC(=O)N1CC[C@@H]2[C@H]1CN2c1nc(OC[C@@H]2C[C@@H](F)CN2C)nc2c(F)c(-c3ccc(F)c4sc(N)nc34)c(Cl)cc12 [Compound 89]	A (percent of modification ≥70%)	500 to 5000	C (10%≤percent of modification <50%)
C=CC(=O)N1CC(Nc2nc(OC[C@@H]3CCCN3C)nc3c(F)c(-c4ccc(F)c5nc(N)sc45)c(Cl)cc23)C1 [Compound 90]	A (percent of modification ≥70%)	> 20000	D (percent of modification <10%)
C=CC(=O)N1CC(Nc2nc(OCC34CCCN3CCC4)nc3c(F)c(-c4ccc(F)c5sc(N)nc45)c(CC#N)cc23)C1 [Compound 91, 2-(4-((1-acryloylazetidin-3-yl)amino)-7-(2-amino-7-fluorobenzo[d]thiazol-4-yl)-8-fluoro-2-((tetrahydro-1H-pyrrolizin-7a(5H)-yl)methoxy)quinazolin-6-yl)acetonitrile]	A (percent of modification ≥70%)	< 500	A (percent of modification ≥70%)
CC#CC(=O)N1CC(Nc2nc(OC[C@@H]3CCCN3C)nc3c(F)c(-c4ccc(F)c5sc(N)nc45)c(Cl)cc23)C1 [Compound 92, 1-[3-[[7-(2-amino-7-fluoro-1,3-benzothiazol-4-yl)-6-chloro-8-fluoro-2-[[(2S)-1-methylpyrrolidin-2-yl]methoxy]quinazolin-4-yl]amino]azetidin-1-yl]but-2-yn-1-one]	A (percent of modification ≥70%)	< 500	B (50≤percent of modification <70%)
C=CC(=O)N1CC(Nc2nc(OC[C@@H]3CCCN3C)nc3c(F)c(-c4ccc(F)c5sc(N)nc45)c(-c4ccoc4)cc23)C1 [Compound 93]	A (percent of modification ≥70%)	< 500	A (percent of modification ≥70%)
C=CC(=O)N1CC(Nc2nc(OC[C@@H]3C[C@@H](OC(F)F)CN3C)nc3c(F)c(-c4ccc(F)c5sc(N)nc45)c(Cl)cc23)C1 [Compound 94]	B (50≤percent of modification <70%)	500 to 5000	C (10%≤percent of modification <50%)
